Test results from patent US6448062B1, “Simultaneous cleaning and decontaminating compositions and methods” (priority 1998, dated 2002).

B1: Alcalase ® 2.5 L: commercial subtilisin A liquid concentrate, 2.5 Anson units per gram (Novo Nordisk) (protein, UniProt P00780 106-379, looked up)
Subtilisin Carlsberg: AQTVPYGIPLIKADKVQAQGFKGANVKVAVLDTGIQASHPDLNVVGGASFVAGEAYNTDGNGHGTHVAGTVAALDNTTGVLGVAPSVSLYAVKVLNSSGSGSYSGIVSGIEWATTNGMDVINMSLGGASGSTAMKQAVDNAYAKGVVVVAAAGNSGSSGNTNTIGYPAKYDSVIAVGAVDSNSNRASFSSVGAELEVMAPGAGVYSTYPTNTYATLNGTSMASPHVAGAAALILSKHPNLSASQVRNRLSSTATYLGSSFYYGKGLINVEAAAQ
modifications: commercial liquid concentrate

What was measured:
Azocasein [1] = experiment: Azocasein hydrolysis (Abs390) by human trypsin or chymotrypsin in PAA/H2O2
Azocasein [2] = experiment: Azocasein substrate method (Novo Nordisk): Alcalase activity in 7.5% H2O2

Molecule | Absorbance Ratio of Trypsin/Trypsin-0.2% PAA/1.05% H2O2 solutions (Azocasein [1]; 2.8 h) | Absorbance Ratio of Trypsin/Trypsin-0.2% PAA/1.05% H2O2 solutions (Azocasein [1]; 7 h) | Alcalase activity (Azocasein [2]; 7.5% w/w H2O2, pH 3.9 unadjusted, 3.5 min) [AU/ml] | Alcalase activity (Azocasein [2]; 7.5% w/w H2O2, pH 3.9 unadjusted, 120 min) [AU/ml] | Alcalase activity (Azocasein [2]; 7.5% w/w H2O2, pH 3.9 unadjusted, 240 min) [AU/ml] | Alcalase activity (Azocasein [2]; 7.5% w/w H2O2, pH 8.5 adjusted in 0.2 M Tris buffer, 30 min) [AU/ml] | Alcalase activity (Azocasein [2]; 7.5% w/w H2O2, pH 8.5 adjusted in 0.2 M Tris buffer, 120 min) [AU/ml] | Alcalase activity (Azocasein [2]; 7.5% w/w H2O2, pH 8.5 adjusted in 0.2 M Tris buffer, 240 min) [AU/ml]
Trypsin: human trypsin (Sigma) | 0.86 | 0.77 |  |  |  |  |  | 
B1 |  |  | 0.82 | 0.19 | 0.35 | 0.20 | 0.31 | 0.56
